Experimental findings from ChEMBL document CHEMBL3272324, “Studies on antitumor agents, 2. Syntheses and antitumor activities of 1-(tetrahydro-2-furanyl)-5-fluorouracil and 1,3-bis(tetrahydro-2-furanyl)-5-fluorouracil” (J Med Chem, 1978) are described below.

Holding throughout (type): organism-based
Conditions in all cases: in vivo

Data set [1] is described as follows: Toxicity in po dosed ddY mouse after 1 week by up and down method.
The nature of data set [2]: Toxicity in po dosed ddY mouse after 2 weeks by up and down method.
Data set [3] can be described thus: Toxicity in po dosed ddY mouse after 3 days by up and down method.

Each structure is given as a SMILES string.

What is called LD50 is the dose at which mortality reaches 50%. Read a low LD50 as greater toxicity. Take `O=c1[nH]c(=O)n(C2CCCO2)cc1F` (stereo not drawn) [TEGAFUR]: the LD50 at 168 h in data set [1] was 860 mg/kg. In data set [2], this molecule showed an LD50 at 336 h of 820 mg/kg. The molecule also showed a median lethal dose (LD50) at 72 h in data set [3] of 900 mg/kg.
